# Experimental logP (octanol/water) values from OPERA 2.9

Data: OPERA 2.9 data sets, kmansouri/OPERA on GitHub.

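OPERA's authors assembled the values from existing databases and did not measure them anew. The files give a single number for a compound and property, which may rest on several reports. How each value was measured is not recorded, so precision varies. A value may pool stereoisomers or salt forms, and the file does not say which form was measured. Some upstream entries may be estimates or bounds without being marked so.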

The octanol-water partition coefficient is given as log10; larger values mean a more lipophilic compound.
Cells with "n/a" have no entry in this list.

SMILES | name | logP (octanol/water)
CCCCCCCCN=c1ccn(CCCCCCCCCCn2ccc(=NCCCCCCCC)cc2)cc1.Cl.Cl | Octenidine hydrochloride | 1.5
CCCCCc1ccc(O)c2c1OC(C)(C)C1CCC(C)=CC21 (stereo unspecified) | n/a | 6.97
C=Cc1ccc(C=C)cc1 | 1,4-Divinylbenzene | 4.18
CC(=O)N1CCCCCC1=O | 2H-Azepin-2-one, 1-acetylhexahydro- | 0.95
O=S(=O)([O-])c1ccccc1/C=C/c1ccc(-c2ccc(/C=C/c3ccccc3S(=O)(=O)[O-])cc2)cc1.[Na+].[Na+] | Disodium 4,4'-bis(2-sulfostyryl)biphenyl | -2.32
O=C(ON=C1C=CC(=NOC(=O)c2ccccc2)C=C1)c1ccccc1 | 2,5-Cyclohexadiene-1,4-dione, 1,4-bis(O-benzoyloxime) | 4.43
Cc1ccc(C(C)(C)C)c(O)c1C(C)(C)C | Phenol, 2,6-bis(1,1-dimethylethyl)methyl- | 5.1
COc1ccc(CN)cc1 | Benzenemethanamine, 4-methoxy- | 1.15
CCC1CO1 (stereo unspecified) | 1,2-Epoxybutane | 0.68
COc1ccccc1N1CCN(CCNC(=O)C2CCCCC2)CC1 | n/a | 2.8
Cn1c(N)c2ncn(Cc3ccccc3)c2nc1=O | 6-Amino-9-benzyl-1-methyl-1,9-dihydro-2H-purin-2-one | 0.65
CCOc1ccc(NC(=O)c2cc3ccccc3cc2O)cc1 | 2-Naphthalenecarboxamide, N-(4-ethoxyphenyl)-3-hydroxy- | 2.8
CC(C)CCCC(C)CCCC(C)CCCCC(C)CCCC(C)CCCC(C)C (stereo unspecified) | Squalane | 5.49
Nc1cccc[n+]1[O-] | 1-Oxopyridin-2-ylamine | -0.87
O=C1c2cccc(Sc3ccccc3)c2C(=O)c2c(Sc3ccccc3)cccc21 | n/a | 3.38
Cc1ccc(N2C(=O)CCC2=O)cc1 | 2,5-Pyrrolidinedione, 1-(4-methylphenyl)- | 0.58
CC(=O)OCC(=O)[C@H]1[C@H](C)C[C@H]2[C@@H]3CC=C4C[C@@H](O)CC[C@]4(C)[C@H]3CC[C@@]21C | 3-Hydroxy-16-methyl-20-oxopregn-5-en-21-yl acetate | 4.14
Cc1c(C)c(O)c(C)c(C)c1O | Durohydroquinone | 1.8
CC(O)(P(=O)(O)O)P(=O)(O)O | Etidronic acid | -3.5
O=S(=O)([O-])c1cccc2c(/N=N/c3ccc(/N=N/c4ccc(Nc5ccccc5)c5c(S(=O)(=O)[O-])cccc45)c4ccccc34)cccc12.[Na+].[Na+] | n/a | -0.211
C#CCN(CC)CC | 2-Propyn-1-amine, N,N-diethyl- | 1.5
Nc1c(S(=O)(=O)[O-])cc(NC2CCC(Nc3nc(Nc4cc(S(=O)(=O)[O-])ccc4S(=O)(=O)[O-])nc(-[n+]4cccc(C(=O)O)c4)n3)CC2)c2c1C(=O)c1ccccc1C2=O.[Na+].[Na+].[Na+] (stereo unspecified) | n/a | -4.169
O=S(=O)(O)CCN1CCN(CCO)CC1 | (4-(2-Hydroxyethyl)-1-piperazineethanesulfonic acid | -3.85
Cc1ccccc1Nc1nc(Cl)nc(Nc2cc(S(=O)(=O)[O-])cc3cc(S(=O)(=O)[O-])c(/N=N/c4ccccc4S(=O)(=O)[O-])c(O)c23)n1.[Na+].[Na+].[Na+] | n/a | -4.483
CC1(C)C(=O)N(Cl)C(=O)N1Br | 1-Bromo-3-chloro-5,5-dimethylhydantoin | 0.35
CC(O)=NC(C(=N)O)C(C)C (stereo unspecified) | 2-[(1-Hydroxyethylidene)amino]-3-methylbutanimidic acid | -0.61
CC(CO)Oc1ccccc1 (stereo unspecified) | 2-Phenoxy-1-propanol | 1.52
CN(CCC#N)c1ccc(/C=C/C2=[N+](C)c3ccccc3C2(C)C)cc1.O=S(=O)([O-])O | n/a | -3.15
S=C([S-])NCCNC(=S)[S-].[Zn+2] | Zineb | 1.3
O=C1/C(=C2\Nc3ccc(S(=O)(=O)[O-])cc3C2=O)Nc2ccc(S(=O)(=O)[O-])cc21.[Na+].[Na+] | C.I. Acid Blue 74 | -3.57
CCCCCCOC(=O)c1ccccc1 | Hexyl benzoate | 5.1
Nc1c(/N=N/c2ccc([N+](=O)[O-])cc2)c(S(=O)(=O)[O-])cc2cc(S(=O)(=O)[O-])c(/N=N/c3ccc(S(=O)(=O)Nc4ccc(/N=N/c5ccc(O)cc5O)cc4)cc3)c(O)c12.[Na+].[Na+] | n/a | -1.754
Cl.N=C(N)c1cccc([N+](=O)[O-])c1 | 3-Nitrobenzene-1-carboximidamide--hydrogen chloride (1/1) | 0.72
C[SiH]1O[SiH](C)O[SiH](C)O[SiH](C)O1 (stereo unspecified) | Cyclotetrasiloxane, 2,4,6,8-tetramethyl- | 5.54
C[Si](C)(C)O[Si](C)(C)O[Si](C)(C)O[Si](C)(C)O[Si](C)(C)O[Si](C)(C)C | Tetradecamethylhexasiloxane | 9.419
CC(=O)N(C)CCCN1c2ccccc2CCc2ccccc21 | n/a | 0.12
C=C(C)C(=O)OCCOC(=O)CC(C)=O | 2-((2-Methyl-1-oxoallyl)oxy)ethyl acetoacetate | 0.9
CCCCCCCCCCOC(=O)c1ccccc1C(=O)OCCCCCC | Hexyl decyl phthalate | 8.1
CCn1c(O)c(/N=N/c2cc(Nc3nc(Cl)nc(Nc4cccc(S(=O)(=O)[O-])c4)n3)ccc2S(=O)(=O)[O-])c(C)c(CS(=O)(=O)[O-])c1=O.[Na+].[Na+].[Na+] | n/a | -3.49
CCOCCOCCOC(C)=O | 2-(2-Ethoxyethoxy)ethyl acetate | 0.094
COCC[N+](C)(C)C.[I-] | 2-Methoxy-N,N,N-trimethylethan-1-aminium iodide | -2.62
CCCCn1c(N2CCN(c3ccccc3)CC2)c(C=C2SC(=S)N(Cc3ccccc3Cl)C2=O)c(C)c(C#N)c1=O | n/a | 0.72
CCCCCCCCCCCCCCCCCCCCCCO | 1-Docosanol | 8.3
C[N+](C)(C)CCO.[OH-] | Choline hydroxide | -2.25
Nc1ccc([N+](=O)[O-])c2ccccc12 | 1-Naphthylamine, 4-nitro- | 1.77
CCN1CC(C(O)C(CC2CCCCC2)NC(=O)C(Cc2c[nH]cn2)NC(=O)C(CC(=O)N2CC(OCOCCOC)C(OCOCCOC)C2)Cc2ccccc2)OC1=O (stereo unspecified) | n/a | 1.87
BrC(Br)C(Br)Br | 1,1,2,2-Tetrabromoethane | 2.8
C[N+](C)(C)c1cccc([O-])c1.I | 3-(Trimethylazaniumyl)phenolate--hydrogen iodide (1/1) | -2.68

7 of these entries, quoted again:

| SMILES | name | logP (octanol/water) |
|---|---|---|
| CCN1CC(C(O)C(CC2CCCCC2)NC(=O)C(Cc2c[nH]cn2)NC(=O)C(CC(=O)N2CC(OCOCCOC)C(OCOCCOC)C2)Cc2ccccc2)OC1=O (stereo unspecified) | n/a | 1.87 |
| Cn1c(N)c2ncn(Cc3ccccc3)c2nc1=O | 6-Amino-9-benzyl-1-methyl-1,9-dihydro-2H-purin-2-one | 0.65 |
| C=C(C)C(=O)OCCOC(=O)CC(C)=O | 2-((2-Methyl-1-oxoallyl)oxy)ethyl acetoacetate | 0.9 |
| CN(CCC#N)c1ccc(/C=C/C2=[N+](C)c3ccccc3C2(C)C)cc1.O=S(=O)([O-])O | n/a | -3.15 |
| C#CCN(CC)CC | 2-Propyn-1-amine, N,N-diethyl- | 1.5 |
| O=C1/C(=C2\Nc3ccc(S(=O)(=O)[O-])cc3C2=O)Nc2ccc(S(=O)(=O)[O-])cc21.[Na+].[Na+] | C.I. Acid Blue 74 | -3.57 |
| CC(=O)N1CCCCCC1=O | 2H-Azepin-2-one, 1-acetylhexahydro- | 0.95 |